{"source": "ChEMBL document CHEMBL5338751", "about": "“Discovery of the First-in-Class Intestinal Restricted FXR and FABP1 Dual Modulator ZLY28 for the Treatment of Nonalcoholic Fatty Liver Disease” (J Med Chem, 2023)", "data": [{"molecular_target": "T1, Fatty acid-binding protein, liver (Homo sapiens) (UniProt P07148)", "T1 sequence (whole entry)": "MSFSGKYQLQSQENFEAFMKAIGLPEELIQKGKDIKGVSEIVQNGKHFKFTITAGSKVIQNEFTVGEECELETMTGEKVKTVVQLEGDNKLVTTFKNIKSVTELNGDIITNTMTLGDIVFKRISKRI", "assay": "Displacement of 8-anilino-1-naphthalene-sulfonic acid from FABP1 (unknown origin) at 10 uM incubated for 3 mins by fluorescence based assay relative to control", "units": {"inhibition": "%"}, "values": [{"smiles": "O=C(O)Cc1ccc(-c2ccc(OCc3c(-c4c(Cl)cccc4Cl)noc3C3CC3)cc2)cc1Cl", "inhibition": 27.4}, {"smiles": "O=C(O)C1(c2cccc(-c3ccc(OCc4c(-c5ccccc5C(F)(F)F)noc4C4CC4)cc3)c2)CC1", "inhibition": 35.4}, {"smiles": "O=C(O)Cc1ccc(-c2ccc(OCc3c(-c4c(Cl)cccc4Cl)noc3C3CC3)c(F)c2)cc1", "inhibition": 31.7}, {"smiles": "O=C(O)Cc1ccc(-c2ccc(OCc3c(-c4ccccc4C(F)(F)F)noc3C3CC3)cc2)cc1", "inhibition": 0.3}, {"smiles": "O=C(O)COc1ccc(-c2ccc(OCc3c(-c4c(Cl)cccc4Cl)noc3C3CC3)cc2)cc1", "inhibition": 63.5}, {"smiles": "O=C(O)Cc1ccc(-c2ccc(OCc3c(-c4c(Cl)cccc4Cl)noc3C3CC3)cc2Cl)cc1", "inhibition": 65.1}, {"smiles": "O=C(O)Cc1ccc(N2CCC(OCc3c(-c4c(Cl)cccc4Cl)noc3C3CC3)CC2)cc1", "inhibition": 15.1}, {"smiles": "CC(C)c1onc(-c2ccccc2C(F)(F)F)c1COc1ccc(-c2ccc(CC(=O)O)cc2)cc1", "inhibition": 3.7}, {"smiles": "CC(C)(Oc1ccc(-c2ccc(OCc3c(-c4c(Cl)cccc4Cl)noc3C3CC3)cc2)cc1)C(=O)O", "inhibition": 54.5}, {"smiles": "CC(C)c1onc(-c2ccccc2OC(F)(F)F)c1COc1ccc(-c2cccc(C3(C(=O)O)CC3)c2)cc1", "inhibition": 22.6}, {"smiles": "O=C(O)Cc1cccc(-c2ccc(OCc3c(-c4c(Cl)cccc4Cl)noc3C3CC3)cc2)c1", "inhibition": 42.3}, {"smiles": "CC(C)c1onc(-c2ccccc2OC(F)(F)F)c1COc1ccc(-c2cccc(CC(=O)O)c2)cc1", "inhibition": 48.5}, {"smiles": "CC(C)c1onc(-c2ccccc2OC(F)(F)F)c1COc1ccc(-c2ccc(CC(=O)O)cc2)cc1", "inhibition": 41.2}, {"smiles": "O=C(O)CCc1ccc(-c2ccc(OCc3c(-c4c(Cl)cccc4Cl)noc3C3CC3)cc2)cc1", "inhibition": 88.5}, {"smiles": "O=C(O)Cc1cccc(-c2ccc(OCc3c(-c4ccccc4OC(F)(F)F)noc3C3CC3)cc2)c1", "inhibition": 4.5}, {"smiles": "O=C(O)c1ccc(-c2ccc(OCc3c(-c4ccccc4OC(F)(F)F)noc3C3CC3)cc2)cc1", "inhibition": 20.3}, {"smiles": "O=C(O)Cc1ccc(-c2ccc(OCc3c(-c4c(Cl)cccc4Cl)noc3C3CC3)c(Cl)c2)cc1", "inhibition": 26.1}, {"smiles": "O=C(O)Cc1ccc(-c2ccc(OCc3c(-c4c(Cl)cccc4Cl)noc3C3CC3)cc2)c(F)c1", "inhibition": 4.2}, {"smiles": "O=C(O)Cc1ccc(-c2ccc(OCc3c(-c4ccccc4OC(F)(F)F)noc3C3CC3)cc2)cc1", "inhibition": 31.6}, {"smiles": "O=C(O)C1(c2ccc(N3CCC(OCc4c(-c5c(Cl)cccc5Cl)noc4C4CC4)CC3)cc2)CC1", "inhibition": 11.7}, {"smiles": "CC(C)c1onc(-c2c(Cl)cccc2Cl)c1COc1ccc(-c2ccc(CC(=O)O)cc2)cc1", "inhibition": 35.7}, {"smiles": "O=C(O)c1cccc(-c2ccc(OCc3c(-c4c(Cl)cccc4Cl)noc3C3CC3)cc2)c1", "inhibition": 16.2}, {"smiles": "CC(C)c1onc(-c2c(Cl)cccc2Cl)c1COc1ccc(-c2cccc(C3(C(=O)O)CC3)c2)cc1", "inhibition": 42.8}, {"smiles": "CC(C)(C(=O)O)c1ccc(-c2ccc(OCc3c(-c4c(Cl)cccc4Cl)noc3C3CC3)cc2)cc1", "inhibition": 41.7}, {"smiles": "O=C(O)Cc1ccc(-c2ccc(OCc3c(-c4c(Cl)cccc4Cl)noc3C3CC3)cc2)cc1F", "inhibition": 24.9}, {"smiles": "Cc1cc(CC(=O)O)ccc1-c1ccc(OCc2c(-c3c(Cl)cccc3Cl)noc2C2CC2)cc1", "inhibition": 32.8}, {"smiles": "O=C(O)CCc1cccc(-c2ccc(OCc3c(-c4c(Cl)cccc4Cl)noc3C3CC3)cc2)c1", "inhibition": 70.6}, {"smiles": "Cc1cc(-c2ccc(CC(=O)O)cc2)ccc1OCc1c(-c2c(Cl)cccc2Cl)noc1C1CC1", "inhibition": 28}, {"smiles": "O=C(O)C1(c2ccc(-c3ccc(OCc4c(-c5c(Cl)cccc5Cl)noc4C4CC4)cc3)cc2)CC1", "inhibition": 54.7}, {"smiles": "O=C(O)Cc1ccc(-c2ccc(OCc3c(-c4c(Cl)cccc4Cl)noc3C3CC3)cc2)cc1", "inhibition": 84.2}, {"smiles": "O=C(O)Cc1ccc(-c2ccc(OCc3c(-c4c(Cl)cccc4Cl)noc3C3CC3)cc2F)cc1", "inhibition": 30.6}, {"smiles": "Cc1cc(OCc2c(-c3c(Cl)cccc3Cl)noc2C2CC2)ccc1-c1ccc(CC(=O)O)cc1", "inhibition": 49.6}, {"smiles": "O=C(O)C1(c2cccc(-c3ccc(OCc4c(-c5ccccc5OC(F)(F)F)noc4C4CC4)cc3)c2)CC1", "inhibition": 7.8}]}]}
